Laboratory results: patent EP0689839A2, “Use of inhibitors of adenosine triphosphatase for the manufacture of a medicament for the treatment of disorders anociated with beta-amyloid peptide” (ELI LILLY AND COMPANY, priority 1994, dated 1996)
Several values for one entry are separate records, joined by “and”; a condition that tells them apart may be missing. Identical values can stand only once.

System: 293 751 SWE and CHO 751 SWE
Test: Cytotoxic effects / cellular viability by MTT in the cellular assay
Type: cell-based
Method: Two cell lines (human kidney cell line 293 and Chinese hamster ovary cell line CHO) were stably transfected with the gene for APP751 containing the double mutation Lys₆₅₁-Met₆₅₂ to Asn₆₅₁-Leu₆₅₂ (APP-751 numbering) commonly called the Swedish mutation using the method described in Citron, et al., Nature (London), 360:672-674 (1992). The transfected cell lines were designated as 293 751 SWE and CHO 751 SWE, and were plated in Corning 96 well plates at 2.5 x 10⁴ or 1 x 10⁴ cells per well respectively in Dulbecco's […] essential media (DMEM) plus 10% fetal bovine serum. Following overnight incubation at 37°C in an incubator equilibrated with 10% carbon dioxide (CO₂) and humidified air, the media were removed and replaced with 200 µl per well of media containing a macrolide. After a two hour pretreatment period, the media were again removed and replaced with fresh media containing the test compound and the cells were incubated for an additional two hours.
Cytotoxic effects of the compounds were measured by a modification of the method of Hansen, et al., Journal of Immununological Methods, 119:203-210 (1989). To the cells remaining in the tissue culture plate, was added 25 µl of a 3-(4,5-dimethylthiazol-2-yl)2,5-diphenyltetrazolium bromide (MTT) stock solution (5 mg/ml) to a final concentration of 1 mg/ml. Cells were incubated at 37°C for one hour, and cellular activity was stopped by the addition of an equal volume of MTT lysis buffer (20% w/v sodium dodecylsulfate in 50% DMF, pH 4.7). Complete extraction was achieved by overnight shaking at room temperature. The difference in the OD562nm and the OD650nm was measured in a UVmax microplate reader as an indicator of the cellular viability.

elaiophyline
Percent Viability (0.6 µM): 96% | Percent Viability (1.2 µM): 95% | Percent Viability (2.4 µM): 69% | Percent Viability (4.9 µM): 68% | Percent Viability (9.8 µM): 65% and 63%
